Data reported in PMC3562396.

Sequences of proteins named here, by UniProt entry; tags and fusion partners are left off. A change or cut given only in a name is not applied to a line headed by its entry.
UniProt P53805: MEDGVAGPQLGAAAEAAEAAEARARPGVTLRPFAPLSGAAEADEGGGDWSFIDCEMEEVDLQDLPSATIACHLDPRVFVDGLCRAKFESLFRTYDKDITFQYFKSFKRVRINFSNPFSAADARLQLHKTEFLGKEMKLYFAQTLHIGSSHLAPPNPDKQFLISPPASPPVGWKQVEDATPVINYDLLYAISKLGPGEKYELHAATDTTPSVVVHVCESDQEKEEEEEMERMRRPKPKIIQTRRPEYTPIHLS

Target: epitope-tagged human RCAN1 (RCAN1-HA-Flag) expressed from the BAC transgene (human) (UniProt P53805)
Assay: co-IP

percent of CaN associated with RCAN1: < 1%
Substance: calcineurin (CaN) phosphatase, catalytic and regulatory subunits (from UniProt P63328 1-521; Q63810 1-170) (complex)
